Measured values: patent US11135316B2, “Imaging and treatment of pathophysiologic conditions by Cerenkov radiation” (priority 2014, dated 2021)

Assay: Solubility of Tc
Format: physicochemical
Experimental: Synthesis of TiO2-PEG, TiO2-Tf, Tc-Tf and TiO2-Tf-Tc. Anatase TiO2 (1 mg; Sigma Aldrich Co.) was suspended in deionized water (1 ml) to prepare a working stock solution. PEG 400 (100 μl) was added to the TiO2 solution and sonicated using a probe sonicator for 10 min at room temperature (RT). The mixture was then dialyzed overnight against Dulbecco's Phosphate Buffered Saline (DPBS) using a 3000 Da molecular weight cutoff (MWCO) Slide-A-Lyzer MINI Dialysis Device (Thermo Fisher Scientific Inc.) to remove excess PEG. Working stock solutions of Tf were prepared by dissolving 5 mg of human apo-Tf (Sigma Aldrich Co.) in 1 ml DPBS, pH 7.4. To prepare TiO2-Tf, a 1:1 (v/v) solution of TiO2 and Tf was mixed and probe sonicated in continuous mode for 5 min. The solution was then immediately passed through a 0.45 μm syringe filter to isolate monodisperse nanoparticles. To prepare Tc-Tf, five-fold molar excess of Tc (Sigma Aldrich Co.) was added to human apo-Tf and incubated in a shaker for 2 h at room temperature (RT). […] The mixture was then dialyzed overnight against DPBS using a 3000 Da molecular weight cutoff (MWCO) Slide-A-Lyzer MINI Dialysis Device to remove excess Tc. TiO2-Tf-Tc was similarly prepared by incubating Tc with TiO2-Tf conjugates and thereafter dialyzing to remove excess Tc. […]

Titanocene dichloride [Tc]
solubility in water and aqueous buffers: low solubility
